Results: ChEMBL document CHEMBL4627384, “l-Thyroxin and the Nonclassical Thyroid Hormone TETRAC Are Potent Activators of PPARγ” (J Med Chem, 2020)

By UniProt entry, the sequences of proteins in these tests, tags left out. Where a name states a change or a piece, a line headed by the entry shows the natural chain unless it says otherwise.
UniProt P37238, whole entry: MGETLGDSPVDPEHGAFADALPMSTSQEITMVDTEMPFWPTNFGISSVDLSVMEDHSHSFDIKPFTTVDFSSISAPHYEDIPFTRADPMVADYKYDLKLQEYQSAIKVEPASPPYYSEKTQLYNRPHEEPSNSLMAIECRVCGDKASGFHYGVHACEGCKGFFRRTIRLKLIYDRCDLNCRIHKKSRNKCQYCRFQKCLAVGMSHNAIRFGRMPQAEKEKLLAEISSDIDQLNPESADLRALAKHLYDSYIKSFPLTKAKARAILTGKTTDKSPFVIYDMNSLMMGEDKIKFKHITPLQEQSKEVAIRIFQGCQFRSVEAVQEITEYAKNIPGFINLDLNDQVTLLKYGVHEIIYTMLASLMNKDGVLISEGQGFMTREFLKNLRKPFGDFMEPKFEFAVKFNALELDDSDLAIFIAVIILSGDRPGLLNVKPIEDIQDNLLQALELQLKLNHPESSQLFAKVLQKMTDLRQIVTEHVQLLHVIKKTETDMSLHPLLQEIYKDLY
UniProt P37231: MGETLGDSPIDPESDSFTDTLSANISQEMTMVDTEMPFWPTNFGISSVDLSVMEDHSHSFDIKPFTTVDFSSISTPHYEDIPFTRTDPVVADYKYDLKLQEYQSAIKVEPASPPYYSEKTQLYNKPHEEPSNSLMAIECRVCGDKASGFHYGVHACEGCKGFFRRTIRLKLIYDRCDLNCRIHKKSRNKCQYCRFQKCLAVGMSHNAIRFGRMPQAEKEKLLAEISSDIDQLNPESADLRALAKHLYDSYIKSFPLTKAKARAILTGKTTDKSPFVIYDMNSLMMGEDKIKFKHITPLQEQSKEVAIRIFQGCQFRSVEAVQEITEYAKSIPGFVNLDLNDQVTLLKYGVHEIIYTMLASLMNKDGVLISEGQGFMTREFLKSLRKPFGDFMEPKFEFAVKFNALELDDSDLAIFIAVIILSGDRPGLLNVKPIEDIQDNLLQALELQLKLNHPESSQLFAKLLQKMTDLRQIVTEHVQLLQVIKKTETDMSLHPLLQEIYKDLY
UniProt P08659, whole entry: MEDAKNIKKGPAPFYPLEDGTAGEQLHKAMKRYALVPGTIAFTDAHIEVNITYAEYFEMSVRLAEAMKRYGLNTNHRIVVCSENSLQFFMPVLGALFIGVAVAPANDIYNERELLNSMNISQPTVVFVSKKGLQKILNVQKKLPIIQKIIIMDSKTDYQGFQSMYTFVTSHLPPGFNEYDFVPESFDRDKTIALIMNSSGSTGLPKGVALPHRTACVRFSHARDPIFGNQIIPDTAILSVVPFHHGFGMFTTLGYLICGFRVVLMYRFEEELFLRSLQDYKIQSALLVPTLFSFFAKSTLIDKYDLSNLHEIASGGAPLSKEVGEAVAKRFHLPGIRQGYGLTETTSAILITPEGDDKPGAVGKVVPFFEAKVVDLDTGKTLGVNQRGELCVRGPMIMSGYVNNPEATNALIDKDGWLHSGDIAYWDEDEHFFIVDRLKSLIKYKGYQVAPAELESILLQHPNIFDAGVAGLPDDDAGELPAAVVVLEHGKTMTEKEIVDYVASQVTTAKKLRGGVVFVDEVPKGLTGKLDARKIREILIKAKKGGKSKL

Columns and labels:
[1] = target: Peroxisome proliferator-activated receptor gamma (Mus musculus) (UniProt P37238); experiment: In vivo agonist activity at PPARgamma in RjOrl:Swiss CD-1 mouse assessed as induction of CD36 mRNA expression in fat tissue at 10 mg/kg, po administered as single dose measured after 8 hrs by qRT-PCR analysis; type: functional, organism-based
[2] = target: Peroxisome proliferator-activated receptor gamma (Mus musculus) (UniProt P37238); experiment: In vivo agonist activity at PPARgamma in RjOrl:Swiss CD-1 mouse assessed as induction of CD36 mRNA expression in liver at 10 mg/kg, po administered as single dose measured after 24 hrs by qRT-PCR analysis; type: functional, organism-based
[3] = target: Peroxisome proliferator-activated receptor gamma (Mus musculus) (UniProt P37238); experiment: In vivo agonist activity at PPARgamma in RjOrl:Swiss CD-1 mouse assessed as induction of CD36 mRNA expression in fat tissue at 10 mg/kg, po administered as single dose measured after 24 hrs by qRT-PCR analysis; type: functional, organism-based
[4] = target: Peroxisome proliferator-activated receptor gamma (Mus musculus) (UniProt P37238); experiment: In vivo agonist activity at PPARgamma in RjOrl:Swiss CD-1 mouse assessed as induction of ADIPOQ mRNA expression in liver at 10 mg/kg, po administered as single dose measured after 24 hrs by qRT-PCR analysis; type: functional, organism-based
[5] = target: Peroxisome proliferator-activated receptor gamma (Mus musculus) (UniProt P37238); experiment: In vivo agonist activity at PPARgamma in RjOrl:Swiss CD-1 mouse assessed as induction of ADIPOQ mRNA expression in liver at 10 mg/kg, po administered as single dose measured after 8 hrs by qRT-PCR analysis; type: functional, organism-based
[6] = target: Peroxisome proliferator-activated receptor gamma (Mus musculus) (UniProt P37238); experiment: In vivo agonist activity at PPARgamma in RjOrl:Swiss CD-1 mouse assessed as induction of CD36 mRNA expression in liver at 10 mg/kg, po administered as single dose measured after 8 hrs by qRT-PCR analysis; type: functional, organism-based
[7] = target: Peroxisome proliferator-activated receptor gamma (Homo sapiens, UniProt P37231); experiment: Agonist activity at recombinant human pFA-CMV fused PPARgamma LBD expressed in HEK293T cells transfected with pFR-luciferase plasmid and pRL-SV40 plasmid at 3 uM incubated for 14 to 16 hrs in presence of PPARgamma antagonist GW9662 by dual glo luciferase reporter gene assay; type: cell-based; details: HEK-293T
[8] = target: Luciferin 4-monooxygenase (Photinus pyralis) (UniProt P08659); experiment: Activation of firefly luciferase expressed in HEK293T cells at 3 uM incubated for 14 to 16 hrs by reporter gene assay; type: cell-based; details: HEK-293T

| Structure (SMILES) | Activity [1] | Activity [2] | Activity [3] | Activity [4] | Activity [5] | Activity [6] | Activity [7] | Activity [8] |
| --- | --- | --- | --- | --- | --- | --- | --- | --- |
| O=C(O)Cc1cc(Br)c(Oc2cc(I)c(O)c(I)c2)c(I)c1 | Active | Active | Active | Active | Active | Active |  |  |
| N[C@@H](Cc1cc(Br)c(Oc2cc(I)c(O)c(I)c2)c(I)c1)C(=O)O | inactive | Active | Active | Active | inactive | inactive |  |  |
| O=C(O)Cc1cc(I)c(Oc2ccc(O)c(I)c2)c(I)c1 [TIRATRICOL] |  |  |  |  |  |  | inactive | inactive |

The source made the active and inactive calls. No cut-off for these calls is given here.
